The chains behind the UniProt entries cited, without tags or fusion partners.
UniProt P08913, whole entry: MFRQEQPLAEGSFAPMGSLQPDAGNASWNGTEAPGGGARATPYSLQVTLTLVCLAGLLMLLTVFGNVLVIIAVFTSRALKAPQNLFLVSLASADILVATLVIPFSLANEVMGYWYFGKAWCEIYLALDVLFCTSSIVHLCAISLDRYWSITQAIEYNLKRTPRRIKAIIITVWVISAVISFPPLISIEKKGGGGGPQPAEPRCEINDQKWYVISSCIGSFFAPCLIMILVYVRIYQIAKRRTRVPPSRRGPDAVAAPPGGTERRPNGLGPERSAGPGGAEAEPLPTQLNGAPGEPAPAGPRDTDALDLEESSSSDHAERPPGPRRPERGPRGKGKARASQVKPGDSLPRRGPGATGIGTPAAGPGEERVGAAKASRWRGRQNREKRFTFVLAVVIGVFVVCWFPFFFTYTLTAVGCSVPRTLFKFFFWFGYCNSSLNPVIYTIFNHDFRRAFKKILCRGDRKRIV
UniProt P18825, whole entry: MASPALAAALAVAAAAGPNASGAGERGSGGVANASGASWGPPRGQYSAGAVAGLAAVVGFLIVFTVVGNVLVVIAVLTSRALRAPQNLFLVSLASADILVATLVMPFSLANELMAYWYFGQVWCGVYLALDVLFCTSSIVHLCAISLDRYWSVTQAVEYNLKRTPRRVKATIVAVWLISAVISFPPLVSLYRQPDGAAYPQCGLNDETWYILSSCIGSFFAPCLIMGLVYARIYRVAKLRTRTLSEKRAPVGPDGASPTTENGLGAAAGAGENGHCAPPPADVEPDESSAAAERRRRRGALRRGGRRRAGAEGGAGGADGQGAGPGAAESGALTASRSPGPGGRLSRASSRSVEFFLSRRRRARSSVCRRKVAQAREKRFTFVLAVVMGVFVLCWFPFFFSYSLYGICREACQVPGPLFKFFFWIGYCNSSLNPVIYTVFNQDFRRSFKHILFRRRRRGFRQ
UniProt P31645, whole entry: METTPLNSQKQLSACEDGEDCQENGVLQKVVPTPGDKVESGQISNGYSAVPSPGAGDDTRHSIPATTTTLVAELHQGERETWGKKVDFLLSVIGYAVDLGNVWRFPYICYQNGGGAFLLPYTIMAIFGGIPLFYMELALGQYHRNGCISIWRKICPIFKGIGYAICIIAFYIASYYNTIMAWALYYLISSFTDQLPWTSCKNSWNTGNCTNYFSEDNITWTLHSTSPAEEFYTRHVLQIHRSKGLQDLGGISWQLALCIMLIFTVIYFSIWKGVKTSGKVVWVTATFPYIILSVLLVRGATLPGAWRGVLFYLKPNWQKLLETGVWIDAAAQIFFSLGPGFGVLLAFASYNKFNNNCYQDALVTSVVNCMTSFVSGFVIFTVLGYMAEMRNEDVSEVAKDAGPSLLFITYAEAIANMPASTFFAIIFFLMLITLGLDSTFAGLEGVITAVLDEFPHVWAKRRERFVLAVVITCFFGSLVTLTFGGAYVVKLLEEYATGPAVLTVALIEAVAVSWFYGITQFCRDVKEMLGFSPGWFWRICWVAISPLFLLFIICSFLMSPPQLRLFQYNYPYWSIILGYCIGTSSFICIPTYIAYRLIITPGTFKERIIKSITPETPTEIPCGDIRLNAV

In patent US20100105694A1, “SUBSTITUTED PYRAZINONE DERIVATIVES FOR USE AS A MEDICINE” (priority 2006, published 2010):

Experiments:
[1] = target: human adrenergic-α2A receptor (Homo sapiens, UniProt P08913); assay: Radioligand binding experiment for hα2A receptor ([3H]raulwolscine, CHO cell membranes); details: [3H]raulwolscine 1 nM, membranes of CHO cells transfected with human α2A receptor
[2] = target: human adrenergic-α2C receptor (Homo sapiens, UniProt P18825); assay: Radioligand binding experiment for α2C-adrenoceptor ([3H]raulwolscine, CHO cell membranes); details: [3H]raulwolscine 1 nM, membranes of CHO cells transfected with human α2C receptor
5HT-Transporter = 5HT-Transporter (Homo sapiens, UniProt P31645); assay: Binding experiment for the 5HT-transporter ([3H]paroxetine, human platelet membranes); details: [3H]paroxetine 0.5 nM

Structure (SMILES)	h-α2A pIC50 [1]	h-α2C pIC50 [2]	h-5HTT pIC50 (5HT-Transporter)
CC(=O)Cn1ccnc(NC2CCN(CCCc3ccccc3)CC2)c1=O	5.8	6.1	<5
O=c1c(N2CCN(Cc3cccc(-c4ccccc4)c3)CC2)nccn1Cc1ccccc1	6.9	6.7	5.1
